Experimental data taken from patent publication US9387135B2, “Absorbent article” (UNICHARM CORPORATION, priority 2012, dated 2016).

From the text: The term “solubility” used herein in regard to water solubility includes cases where the sample completely dissolves in deionized water to form a homogeneous mixture, and cases where the sample is completely emulsified. Here, “completely” means that no mass of the sample remains in the deionized water.

Polyoxyethylenepolyoxypropylene pentaerythritol ether [UNILUBE 5TP-300KB]
Water solubility: less than 0.05 g

Polyoxybutylene polyoxypropylene glycol [UNIOL PB700]
Water solubility: <0.05 g
